For seven compounds, inhibition results are on record in ChEMBL document CHEMBL3085664, “Structure-activity relationship of imidazopyridinium analogues as antagonists of neuropeptide s receptor” (J Med Chem, 2013).

SMILES strings stand for the structures.

This assay deals with T1, Neuropeptide S receptor (Homo sapiens) (UniProt Q6W5P4).
T1 sequence (whole entry): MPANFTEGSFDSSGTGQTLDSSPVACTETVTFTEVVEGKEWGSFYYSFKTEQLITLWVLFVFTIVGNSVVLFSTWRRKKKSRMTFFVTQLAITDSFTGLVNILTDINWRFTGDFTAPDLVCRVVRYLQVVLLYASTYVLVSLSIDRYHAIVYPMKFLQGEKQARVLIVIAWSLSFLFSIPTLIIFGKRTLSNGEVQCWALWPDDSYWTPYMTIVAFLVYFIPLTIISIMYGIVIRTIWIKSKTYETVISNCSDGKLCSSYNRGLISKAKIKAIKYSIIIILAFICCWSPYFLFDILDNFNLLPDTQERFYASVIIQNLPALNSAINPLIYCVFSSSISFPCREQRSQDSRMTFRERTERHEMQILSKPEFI
Description: Antagonist activity at neuropeptide S receptor (unknown origin) expressed in CHO cells assessed as inhibition of NPS-induced ERK activation at 50 uM after 20 mins by HTRF assay relative to control. It is filed as cell-based.
As for `O=P(c1ccccc1)(c1ccccc1)c1cnc2ccccn12`, the inhibition is less than 50%. The result for `Cc1nc2ccccn2c1P(=O)(c1ccccc1)c1ccccc1` reads less than 50%. Then `C[n+]1cc(C(O)(c2ccccc2)c2ccccc2)n2ccccc21.O=C([O-])C(F)(F)F`, with less than 50%.

`c1ccc(P(c2ccccc2)c2cnc3ccccn23)cc1`: the inhibition is less than 50%.

For the compound `OC(c1ccccc1)(c1ccccc1)c1cnc2ccccn12`, the inhibition is less than 50%. Then `Cc1c(C(O)(c2ccccc2)c2ccccc2)n2ccccc2[n+]1C.O=C([O-])C(F)(F)F`, with less than 50%. Then `Cc1nc2ccccn2c1C(O)(c1ccccc1)c1ccccc1`, with less than 50%.
